Test system: Murine peritoneal macrophages (PMθ)
Assay: RANTES and TNFα transcript expression (qRT-PCR) in LPS/IFNγ-treated murine macrophages
Type: cell-based, mouse
Conditions: 1 nM pre-treatment 1 h then LPS/IFNγ 15 h; n=1
Description: Murine peritoneal macrophages (PMθ) were cultured under various conditions: Untreated, LPS (100 ng/ml) and IFNγ (20 ng/ml) for 15 h, modified Chemerin13-human (1 nM) pre-treatment for 1 h then LPS/IFNγ for 15 h. The bar graphs show the mean expression of cytokine transcript determined by qRT-PCR and normalised to housekeeper, hypoxanthine phosphoribosyltransferase, HPRT. Experiments were performed with triplicate determinations for each treatment, n=1 independent experiments. p<0.01 **; p<0.05 * relative to LPS/IFNγ-treated samples unless otherwise stated. The sequence of the modified C13h peptide is NH2-FHSFYFPGQFAFS-COOH (Seq ID No: 43)—in this sequence the N terminal P in C13h has been replaced with the amino acid F, and the peptide is therefore referred to as modified C13h.
Total RNA was extracted using Qiagen RNeasy kits, reverse transcribed and subjected to qRT-PCR using the Sybr-Green method. Data was analysed using the 2-ΔΔCT method (Livak, K. J. & Schmittgen T. D. (2001), Methods 25:402-408).

NH2-FHSFYFPGQFAFS-COOH (Modified C13h) [N terminal P in C13h replaced with F]
RANTES transcript expression (FIG. 10): significantly reduced expression
TNFα transcript expression (FIG. 10): significantly reduced expression
